Reference: publication PMC6271500, “Bowman-Birk Protease Inhibitor from Vigna unguiculata Seeds Enhances the Action of Bradykinin-Related Peptides” (Molecules, 2014)

Tested on: trypsin
Assay: Pretreatment of peptides with trypsin
Assay type: in vitro ADME

[Val]^1[Thr]^6-bradykinyl-Gln-Ser [Bk2]
product released by trypsin pretreatment in vitro (HPLC and mass spectrometry, data not shown): release the active Bk fragment | cleavage by trypsin (site) (pretreatment with trypsin): Arg^9-Gln^10
